# Source: patent US11186582B2, “Substituted [1,2,4]triazolo[1,5-a]pyrimidin-7-yl compounds as PDE2 inhibitors” (DART NEUROSCIENCE (CAYMAN) LTD., priority 2014, dated 2021)
# The chains behind the UniProt entries cited, without tags or fusion partners. Residues count along the entry.
# UniProt O00408, 2-941: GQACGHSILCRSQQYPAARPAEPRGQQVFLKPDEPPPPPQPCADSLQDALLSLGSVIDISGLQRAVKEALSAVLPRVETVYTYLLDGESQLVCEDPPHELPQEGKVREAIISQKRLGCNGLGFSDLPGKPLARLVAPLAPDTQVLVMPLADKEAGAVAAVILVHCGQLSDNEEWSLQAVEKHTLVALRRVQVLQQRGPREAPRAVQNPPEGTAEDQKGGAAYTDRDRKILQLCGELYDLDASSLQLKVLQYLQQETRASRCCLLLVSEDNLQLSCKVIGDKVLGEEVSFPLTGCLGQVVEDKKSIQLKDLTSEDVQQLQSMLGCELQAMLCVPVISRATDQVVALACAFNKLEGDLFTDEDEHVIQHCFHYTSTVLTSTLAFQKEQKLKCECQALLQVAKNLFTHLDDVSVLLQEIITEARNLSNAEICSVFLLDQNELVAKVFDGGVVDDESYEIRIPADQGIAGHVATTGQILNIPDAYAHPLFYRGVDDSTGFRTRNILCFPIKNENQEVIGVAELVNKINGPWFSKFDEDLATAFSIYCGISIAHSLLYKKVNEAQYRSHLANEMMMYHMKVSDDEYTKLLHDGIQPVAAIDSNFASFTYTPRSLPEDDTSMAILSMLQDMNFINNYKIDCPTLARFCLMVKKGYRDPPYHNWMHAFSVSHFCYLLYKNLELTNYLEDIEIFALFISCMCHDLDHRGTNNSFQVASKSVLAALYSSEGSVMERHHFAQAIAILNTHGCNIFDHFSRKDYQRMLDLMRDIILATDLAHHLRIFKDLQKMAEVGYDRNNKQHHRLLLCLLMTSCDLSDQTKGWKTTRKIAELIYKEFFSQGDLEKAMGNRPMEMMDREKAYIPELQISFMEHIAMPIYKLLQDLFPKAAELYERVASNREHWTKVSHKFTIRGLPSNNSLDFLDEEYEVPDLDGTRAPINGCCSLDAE
# Target: FLAG-tagged PDE2A1 (amino acids 2-941) (Homo sapiens (Human), UniProt O00408)
# Test: IMAP TR-FRET PDE2A phosphodiesterase enzymatic assay
# Conditions: not given
row,Structure (SMILES),IC50 [nM]
1,"Cc1cc([C@@H]2CN(C(=O)c3ccc(OC(C)C)c(C)c3)CCO2)n2ncnc2n1 [Example 284, (2S)-4-[3-Methyl-4-(propan-2-yloxy)benzoyl]-2-{5-methyl-[1,2,4]triazolo[1,5-a]pyrimidin-7-yl}morpholine]",> 10000
2,"Cc1cc([C@@H]2CN(C(=O)c3cc(C(C)C)nn3C)CCO2)n2ncnc2n1 [Example 288, (2S)-4-[1-Methyl-3-(propan-2-yl)-1H-pyrazole-5-carbonyl]-2-{5-methyl-[1,2,4]triazolo[1,5-a]pyrimidin-7-yl}morpholine]",1000 to 10000
3,"Cc1cc(C2CN(C(=O)c3ccc4ccncc4c3)CCO2)n2ncnc2n1 (stereo not shown) [Example 297, 7-[(2-{5-Methyl-[1,2,4]triazolo[1,5-a]pyrimidin-7-yl}morpholin-4-yl)carbonyl]isoquinoline]",100 to 1000
4,"Cc1cc(C2CN(C(=O)c3ccc4cccnc4c3)CCO2)n2ncnc2n1 (stereo not shown) [Example 298, 7-[(2-{5-Methyl-[1,2,4]triazolo[1,5-a]pyrimidin-7-yl}morpholin-4-yl)carbonyl]quinoline]",100 to 1000
5,"Cc1cc(C2CN(C(=O)c3ccc(C4CC4)cc3)CCO2)n2ncnc2n1 (stereo not shown) [Example 300, 4-[(4-Cyclopropylphenyl)carbonyl]-2-{5-methyl-[1,2,4]triazolo[1,5-a]pyrimidin-7-yl}morpholine]",100 to 1000

# Same assay, conditions: IMAP TR-FRET, 200 nM FAM-cAMP substrate, 11-point half-log dose-response
row,Structure (SMILES),PDE2 (pIC50)
1,"Cc1cc([C@@H]2CN(C(=O)c3cc(Br)cc(Br)c3)CCO2)n2ncnc2n1 [Example 273, (2S)-4-(3,5-Dibromobenzoyl)-2-{5-methyl-[1,2,4]triazolo[1,5-a]pyrimidin-7-yl}morpholine]",>7
2,"Cc1cc([C@H]2CN(C(=O)c3cc(Br)cc(Br)c3)CC(F)(F)C2)n2ncnc2n1 [Example 274, (5R)-1-(3,5-Dibromobenzoyl)-3,3-difluoro-5-{5-methyl-[1,2,4]triazolo[1,5-a]pyrimidin-7-yl}piperidine]",>7
3,"Cc1cc([C@@H]2CN(C(=O)c3cc(Br)cc(Br)c3)CC(F)(F)C2)n2ncnc2n1 [Example 275, (5S)-1-(3,5-Dibromobenzoyl)-3,3-difluoro-5-{5-methyl-[1,2,4]triazolo[1,5-a]pyrimidin-7-yl}piperidine]",>7
4,"Cc1cc([C@@H]2CN(C(=O)c3cc(C(F)(F)F)cc(C(F)(F)F)c3)CC(F)(F)C2)n2ncnc2n1 [Example 276, (5S)-1-[3,5-Bis(trifluoromethyl)benzoyl]-3,3-difluoro-5-{5-methyl-[1,2,4]triazolo[1,5-a]pyrimidin-7-yl}piperidine]",>7
5,"Cc1cc(C)cc(C(=O)N2C[C@@H](c3cc(C)nc4ncnn34)CC(F)(F)C2)c1 [Example 277, (5S)-1-(3,5-Dimethylbenzoyl)-3,3-difluoro-5-{5-methyl-[1,2,4]triazolo[1,5-a]pyrimidin-7-yl}piperidine]",>7
6,"Cc1cc([C@@H]2CN(C(=O)c3cc(Cl)cc(Br)c3)CCO2)n2ncnc2n1 [Example 278, (2S)-4-(3-Bromo-5-chlorobenzoyl)-2-{5-methyl-[1,2,4]triazolo[1,5-a]pyrimidin-7-yl}morpholine]",>7
7,"Cc1cc([C@@H]2CN(C(=O)c3cc(F)cc(Br)c3)CCO2)n2ncnc2n1 [Example 279, (2S)-4-(3-Bromo-5-fluorobenzoyl)-2-{5-methyl-[1,2,4]triazolo[1,5-a]pyrimidin-7-yl}morpholine]",>7
8,"Cc1cc([C@@H]2CN(C(=O)c3ccc(Br)cc3)CC(F)(F)C2)n2ncnc2n1 [Example 281, (5S)-1-(4-Bromobenzoyl)-3,3-difluoro-5-{5-methyl-[1,2,4]triazolo[1,5-a]pyrimidin-7-yl}piperidine]",>7
9,"Cc1cc([C@@H]2CN(C(=O)c3c(F)c(F)c(F)c(Br)c3F)CC(F)(F)C2)n2ncnc2n1 [Example 282, (5S)-1-(3-Bromo-2,4,5,6-tetrafluorobenzoyl)-3,3-difluoro-5-{5-methyl-[1,2,4]triazolo[1,5-a]pyrimidin-7-yl}piperidine]",>7
10,"Cc1cc([C@@H]2CN(C(=O)c3cc(F)c(F)c(C4CC4)c3)CC(F)(F)C2)n2ncnc2n1 [Example 283, (5S)-1-(3-Cyclopropyl-4,5-difluorobenzoyl)-3,3-difluoro-5-{5-methyl-[1,2,4]triazolo[1,5-a]pyrimidin-7-yl}piperidine]",>7
11,"CCOc1ccc(C(=O)N2CCO[C@H](c3cc(C)nc4ncnn34)C2)cc1C [Example 285, (2S)-4-(4-Ethoxy-3-methylbenzoyl)-2-{5-methyl-[1,2,4]triazolo[1,5-a]pyrimidin-7-yl}morpholine]",>7
12,"Cc1cc(Br)cc(C(=O)N2CCO[C@H](c3cc(C)nc4ncnn34)C2)c1 [Example 286, (2S)-4-(3-Bromo-5-methylbenzoyl)-2-{5-methyl-[1,2,4]triazolo[1,5-a]pyrimidin-7-yl}morpholine]",>7
13,"Cc1cc(Cl)cc(C(=O)N2CCO[C@H](c3cc(C)nc4ncnn34)C2)c1 [Example 287, (2S)-4-(3-Chloro-5-methylbenzoyl)-2-{5-methyl-[1,2,4]triazolo[1,5-a]pyrimidin-7-yl}morpholine]",>7
14,"Cc1cc([C@@H]2CN(C(=O)c3cc(C)c(OC(C)C)c(C)c3)CCO2)n2ncnc2n1 [Example 289, (2S)-4-[3,5-Dimethyl-4-(propan-2-yloxy)benzoyl]-2-{5-methyl-[1,2,4]triazolo[1,5-a]pyrimidin-7-yl}morpholine]",>7
15,"Cc1cc(C2CN(C(=O)c3ccc4ccccc4n3)CC(F)(F)C2)n2ncnc2n1 (stereo not shown) [Example 290, 2-[(3,3-Difluoro-5-{5-methyl-[1,2,4]triazolo[1,5-a]pyrimidin-7-yl}piperidin-1-yl)carbonyl]quinoline]",>7
16,"Cc1cc(C2CN(C(=O)c3cc(Cl)cc(Br)c3)CCO2)n2ncnc2n1 (stereo not shown) [Example 291, 4-[(3-Bromo-5-chlorophenyl)carbonyl]-2-{5-methyl-[1,2,4]triazolo[1,5-a]pyrimidin-7-yl}morpholine]",>7
17,"Cc1cc(C2CN(C(=O)c3cc(Cl)cc(Br)c3)CC(F)(F)C2)n2ncnc2n1 (stereo not shown) [Example 292, 1-[(3-Bromo-5-chlorophenyl)carbonyl]-3,3-difluoro-5-{5-methyl-[1,2,4]triazolo[1,5-a]pyrimidin-7-yl}piperidine]",>7
18,"Cc1cc(C2CN(C(=O)c3cc4ccccc4cn3)CCO2)n2ncnc2n1 (stereo not shown) [Example 293, 3-[(2-{5-Methyl-[1,2,4]triazolo[1,5-a]pyrimidin-7-yl}morpholin-4-yl)carbonyl]isoquinoline]",>7
19,"Cc1cc(C2CN(C(=O)c3cnc4ccccc4c3)CCO2)n2ncnc2n1 (stereo not shown) [Example 294, 3-[(2-{5-Methyl-[1,2,4]triazolo[1,5-a]pyrimidin-7-yl}morpholin-4-yl)carbonyl]quinoline]",>7
20,"Cc1cc(C2CN(C(=O)c3ccc4ncccc4c3)CCO2)n2ncnc2n1 (stereo not shown) [Example 295, 6-[(2-{5-Methyl-[1,2,4]triazolo[1,5-a]pyrimidin-7-yl}morpholin-4-yl)carbonyl]quinoline]",>7
21,"Cc1cc(C2CN(C(=O)c3ccc4cnccc4c3)CCO2)n2ncnc2n1 (stereo not shown) [Example 296, 6-[(2-{5-Methyl-[1,2,4]triazolo[1,5-a]pyrimidin-7-yl}morpholin-4-yl)carbonyl]isoquinoline]",>7
22,"Cc1cc(C2CN(C(=O)c3ccc(C4CC4)cc3)CC(F)(F)C2)n2ncnc2n1 (stereo not shown) [Example 299, 1-[(4-Cyclopropylphenyl)carbonyl]-3,3-difluoro-5-{5-methyl-[1,2,4]triazolo[1,5-a]pyrimidin-7-yl}piperidine]",>7
23,"Cc1cc([C@@H]2CN(C(=O)c3ccc(C4CC4)cc3)CCO2)n2ncnc2n1 [Example 301, (2S)-4-(4-Cyclopropylbenzoyl)-2-{5-methyl-[1,2,4]triazolo[1,5-a]pyrimidin-7-yl}morpholine]",>7
24,"Cc1cc([C@@H]2CN(C(=O)c3ccc(C4CC4)cc3)CC(F)(F)C2)n2ncnc2n1 [Example 302, (5S)-1-(4-Cyclopropylbenzoyl)-3,3-difluoro-5-{5-methyl-[1,2,4]triazolo[1,5-a]pyrimidin-7-yl}piperidine]",>7
25,"Cc1cc(C2CN(C(=O)c3cc(Br)cc(C(F)(F)F)c3)CCO2)n2ncnc2n1 (stereo not shown) [Example 303, 4-[3-Bromo-5-(trifluoromethyl)benzol]-2-{5-methyl-[1,2,4]triazolo[1,5-a]pyrimidin-7-yl}morpholine]",>7
26,"Cc1cc(C2CN(C(=O)c3cc(Br)cc(C(F)(F)F)c3)CC(F)(F)C2)n2ncnc2n1 (stereo not shown) [Example 304, 1-[3-Bromo-5-(trifluoromethyl)benzoyl]-3,3-difluoro-5-{5-methyl-[1,2,4]triazolo[1,5-a]pyrimidin-7-yl}piperidine]",>7
27,"Cc1cc([C@@H]2CN(C(=O)c3cc(C)c(F)c(C)c3)CC(F)(F)C2)n2ncnc2n1 [Example 307, (5S)-3,3-Difluoro-1-(4-fluoro-3,5-dimethylbenzoyl)-5-{5-methyl-[1,2,4]triazolo[1,5-a]pyrimidin-7-yl}piperidine]",>7
28,"COc1c(F)cc(C(=O)N2C[C@@H](c3cc(C)nc4ncnn34)CC(F)(F)C2)cc1Cl [Example 308, (5S)-1-(3-Chloro-5-fluoro-4-methoxybenzoyl)-3,3-difluoro-5-{5-methyl-[1,2,4]triazolo[1,5-a]pyrimidin-7-yl}piperidine]",>7
29,"Cc1cc([C@@H]2CN(C(=O)c3cc(Br)c(C)c(Br)c3)CC(F)(F)C2)n2ncnc2n1 [Example 310, (5S)-1-(3,5-Dibromo-4-methylbenzoyl)-3,3-difluoro-5-{5-methyl-[1,2,4]triazolo[1,5-a]pyrimidin-7-yl}piperidine]",>7
